Measured values from patent US20110300129A1, “SYSTEMS AND METHODS FOR ENHANCING VACCINE EFFICACY” (UNIVERSITY OF ROCHESTER, priority 2008, published 2011).

Protein sequences, listed by entry. Tags and fused reporters are not part of them. Lines headed by an entry give the natural chain unless they say otherwise; changes in a name come on top.
UniProt P37231: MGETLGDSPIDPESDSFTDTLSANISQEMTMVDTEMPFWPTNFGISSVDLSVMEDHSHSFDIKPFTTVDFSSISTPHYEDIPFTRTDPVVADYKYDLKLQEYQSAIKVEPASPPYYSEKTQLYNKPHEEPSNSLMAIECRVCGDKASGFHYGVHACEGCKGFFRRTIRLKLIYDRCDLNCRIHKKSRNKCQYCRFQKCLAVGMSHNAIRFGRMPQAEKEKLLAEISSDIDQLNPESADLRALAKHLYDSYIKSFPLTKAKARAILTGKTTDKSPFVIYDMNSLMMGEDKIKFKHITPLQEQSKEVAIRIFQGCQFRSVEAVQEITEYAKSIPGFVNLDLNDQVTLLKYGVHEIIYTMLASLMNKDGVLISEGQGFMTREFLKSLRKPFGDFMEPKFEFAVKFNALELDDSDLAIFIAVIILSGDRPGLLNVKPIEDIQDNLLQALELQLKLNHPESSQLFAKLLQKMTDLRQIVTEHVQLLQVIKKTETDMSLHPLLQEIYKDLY

Key:
[1] = target: T1, PPARγ (Homo sapiens, UniProt P37231); assay: PPARγ gene reporter analysis (PPRE-luciferase) in transfected B cells; assay type: cell-based; settings: CpG-activated B cells, 24 h treatment; Rosiglitazone 0.5 μM, 15d-PGJ2 0.2 μM
T1 construct: normal B cells were transfected with a PPARγ luciferase reporter construct; endogenous in cells
Description: Twenty-four hours after treatments, luciferase activity was assayed using the Promega Luciferase Assay System (Madison, Wis.). Relative light units (RLU) were determined with a Lumicount Microplate Luminometer (Packard Instrument Co., Meriden, Conn., USA). Relative light units (RLU) were normalized to transfection efficiency that was monitored by cotransfection of GFP expression vector.
To test whether the PPARγ ligand concentrations used here activated PPARγ, normal B cells were transfected with a PPARγ luciferase reporter construct.

[2] = test system: peripheral blood B cells; assay: Plasma cell differentiation, CD38/CD27 surface labeling by flow cytometry; assay type: cell-based, human; settings: CpG 1 μg/ml, 5 days
Description: Intracellular and Surface Labeling: B cells were incubated with mouse anti-human CD19-APC (BD Biosciences), anti-human CD38-PE (BD Biosciences) and/or anti-human CD27-APC (BD Biosciences) in cold PBS with sodium azide (0.02%) and BSA (0.3%) for 20 min at 20° C. COX-2 intracellular staining was performed as described previously (Padilla et al., “Human B Lymphocytes and B Lymphomas Express PPAR-γ and Are Killed by PPAR-γ Agonists,” Clin Immunol 103:22-33 (2002), which is hereby incorporated by reference in its entirety). All samples were acquired on a BD Biosciences FACS Calibur flow cytometer and analyzed using FlowJo software (Tree Star, Inc. Ashland, Oreg.).
Peripheral-blood B lymphocytes include both naive and memory B cell populations. These two B cell subsets can be distinguished based on CD27 expression, which is a marker of memory B cells (Agematsu et al., “CD27: A Memory B-cell Marker,” Immunol Today 21:204-206 (2000), each of which is hereby incorporated by reference in its entirety).

[3] = Cox et al. 2000; cited from earlier work

Q: What does the source list for `CN(CCOc1ccc(CC2SC(=O)NC2=O)cc1)c1ccccn1` (stereo not drawn) [Rosiglitazone, 5-[4-[2-[N-methyl-N-(2-pyridyl)amino]ethoxy]benzyl]thiazolidine-2,4-dione]?
A: luciferase activity (PPRE reporter) [1]: increased luciferase activity; CD38highCD27high cells, fold over vehicle [2]: ~1.7 fold; therapeutic blood levels [3]: low micromolar levels
